Test results published in ChEMBL document CHEMBL1138430, “Novel tetrahydroisoquinolines are histamine H3 antagonists and serotonin reuptake inhibitors” (Bioorg Med Chem Lett, 2007).
pKi: −log10 of the molar value.

Protein sequences, listed by entry. Tags and fused reporters are not part of them. Lines headed by an entry give the natural chain unless they say otherwise; changes in a name come on top.
UniProt Q9Y5N1: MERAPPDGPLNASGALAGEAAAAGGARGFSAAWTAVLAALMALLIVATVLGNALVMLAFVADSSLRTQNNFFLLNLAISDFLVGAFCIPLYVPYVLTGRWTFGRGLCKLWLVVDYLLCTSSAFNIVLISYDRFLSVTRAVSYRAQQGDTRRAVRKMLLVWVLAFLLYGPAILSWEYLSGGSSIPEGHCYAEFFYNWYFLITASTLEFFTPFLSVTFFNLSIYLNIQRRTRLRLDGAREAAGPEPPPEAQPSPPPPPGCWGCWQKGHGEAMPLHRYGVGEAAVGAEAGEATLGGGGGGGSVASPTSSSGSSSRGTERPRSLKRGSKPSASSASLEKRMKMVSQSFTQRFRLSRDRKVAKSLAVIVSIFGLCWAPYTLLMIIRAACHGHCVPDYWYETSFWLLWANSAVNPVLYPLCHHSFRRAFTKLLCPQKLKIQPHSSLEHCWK

Legend:
[1] = biological target: T1, Histamine H3 receptor (Homo sapiens, UniProt Q9Y5N1); experiment: Binding affinity at human histamine H3 receptor
[2] = biological target: T1, Histamine H3 receptor; experiment: Antagonist activity at human histamine H3 receptor; assay type: functional; details: read-out: pA2 (converted)

| pKi [1] | Kb [2] [nM] | SMILES |
| --- | --- | --- |
| 8.42 | 3.63 | COc1ccc(C2CN(C)Cc3cc(OCCCN4CCC(F)CC4)ccc32)cc1 (single isomer, unassigned; (-)) |
| – | 2.63 | COc1ccc(C2CN(C)Cc3cc(OCCCN4CCC(F)CC4)ccc32)cc1 (stereo in doubt; 12b) |
| 8.40 | 1.29 | COc1ccc(C2CN(C)Cc3cc(OCCCN4CCC(F)CC4)ccc32)cc1 (racemic) |
| – | 0.525 | CN1Cc2cc(OCCCN3CCC(F)CC3)ccc2C(c2ccc(S(C)(=O)=O)cc2)C1 (stereo unspecified) |
